The text below walks through data of PubChem BioAssay AID651572 (The Scripps Research Institute Molecular Screening Center, 2012).

Chains of the proteins cited; added tags and fusions are not shown. Residues count along the entry.
UniProt Q62848, 1-136 limits assumed: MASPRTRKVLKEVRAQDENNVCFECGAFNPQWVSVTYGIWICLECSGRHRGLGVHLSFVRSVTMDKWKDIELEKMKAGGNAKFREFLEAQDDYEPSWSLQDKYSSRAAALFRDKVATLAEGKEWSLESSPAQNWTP

The list shows a part of the results, in another mix than the full data. The source made the active and inactive calls.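 Rule for the calls: active = inhibition above a per-plate limit, mean inhibition of low control wells plus 3 SD (cut at about 25% in these data); inactive = the rest.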

Broadly, the inhibition is the change of the read-out against control, counted positive when it falls.

The assay concerns the target ADP-ribosylation factor GTPase-activating protein 1 (Rattus norvegicus) (UniProt Q62848). Description: inhibitors of rat ARFGAP1 GAP activity, primary screen, biochemical, fluorescence polarization, GDP tracer (AID 651572).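 Note: 0% = DMSO wells with enzyme and 100% = wells lacking Arfgap1.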 The following applies: Arfgap1-stimulated ARF1 GTP hydrolysis, GDP FP detection; at 16.5 µM; active compounds read high. Summed up:
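System: truncated rat Arfgap1 GAP domain / Medium: HEPES-based buffer, pH 7.5 / Also added: N-terminally truncated human ARF1-GTP substrate / Incubation: enzyme reaction 120 min at 25 °C after 20 min preincubation / Measured by: FP of antibody-bound GDP Alexa 633 tracer, ex 620/em 688 nm / Replicates: singlicate, each compound tested once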
Consider `CCCCn1nnnc1C(c1ccccc1)N1CCC(n2c(=O)[nH]c3ccccc32)CC1` (stereo not given), for which the inhibition is inactive: 0.11%. Take `COc1cc(C(=O)NCC2(N3CCOCC3)CCCCC2)cc(OC)c1C`: the inhibition was inactive: 6.14%. Under `O=C(NCC1(N2CCOCC2)CCCCC1)c1cc(Br)ccc1Cl` stands inactive: 4.44%; under `O=c1[nH]c2ccccc2n1C1CCN(C(c2cccs2)c2nnnn2C2CCCCC2)CC1` (stereo not given), inactive: -11.6%. The result for `COc1ccc(C(=O)NCC2(N3CCOCC3)CCCCC2)cc1OC` reads inactive: 3.34%.

`O=c1[nH]c2ccccc2n1C1CCN(C(c2ccnc3ccccc23)c2nnnn2C2CCCC2)CC1` (stereo not given): the inhibition is inactive: -1.37%. On to `COc1cccc(C(c2nnnn2C(C)(C)C)N2CCC(n3c(=O)[nH]c4ccccc43)CC2)c1OC` (stereo not given), for which the inhibition is inactive: 9.09%. The result for `CCOC(=O)N1CCC(Nc2ccc(C)cc2)CC1` reads inactive: 7.07%; that for `N/C(=N\O)c1c(N)no[n+]1[O-]`, inactive: 14.8%; that for `O=C(OC1CN2CCC1CC2)C1c2ccccc2C=Cc2ccccc21` (stereo not given), inactive: -1.37%. For the compound `O=c1[nH]c2ccccc2n1C1CCN(C(c2cccs2)c2nnnn2C2CCCC2)CC1` (stereo not given), the inhibition is inactive: 13.2%. Take `CCCCn1nnnc1C(c1cccc(OC)c1OC)N1CCC(n2c(=O)[nH]c3ccccc32)CC1` (stereo not given): the inhibition was inactive: 0.38%.

On to `N#Cc1ccc(C(=O)NCC2(N3CCCCC3)CCCCC2)cc1`, for which the inhibition is inactive: 9.46%.

Take `CC(C)(C)OC(=O)N1CCC(N(C(=O)c2ccccc2)c2ccc(Cl)cc2)CC1`: the inhibition was inactive: 3.41%. Turning to `CN(C)C1(CNC(=O)c2cccc(C#N)c2)CCCCC1`, the inhibition is inactive: -0.36%. In the case of `c1ccc(CN2CCC(Nc3ccccc3)CC2)cc1`, the inhibition is inactive: -8.39%.

As to `C/C(N)=N\P(=O)(Oc1ccccc1)Oc1ccccc1`, the inhibition was inactive: 1.82%.

Regarding `Cc1cc(N(CCCl)CCCl)ccc1C=O`, the inhibition was inactive: -13.9%. `CCCN1CCC(Nc2cc(OC)cc(OC)c2)CC1`: the inhibition is inactive: -3.4%. As to `O=c1[nH]c2ccccc2n1C1CCN(C(c2ccccc2)c2nnnn2C2CCCC2)CC1` (stereo not given), the inhibition was inactive: -8.21%. `CC(C)(C)n1nnnc1C(c1cccc2ccccc12)N1CCC(n2c(=O)[nH]c3ccccc32)CC1` (stereo not given): the inhibition was inactive: 0.49%. Under `CC(=O)N(c1ccccc1)C1CCNCC1` stands inactive: -6.24%; under `COc1cccc(C(c2nnnn2C2CCCCC2)N2CCC(n3c(=O)[nH]c4ccccc43)CC2)c1OC` (stereo not given), inactive: 17.2%; under `CCC(c1nnnn1C1CCCCC1)N1CCC(n2c(=O)[nH]c3ccccc32)CC1` (stereo not given), inactive: -9.25%. In the case of `O=c1[nH]c2ccccc2n1C1CCN(C(c2ccnc3ccccc23)c2nnnn2C2CCCCC2)CC1` (stereo not given), the inhibition was inactive: 3.22%.
